Bioassay records: PubChem, National Center for Advancing Translational Sciences (NCATS)
Only some compounds are listed: those with a hit (about 3.7% of all), similar ones and a draw of the others.
TCR activator = activates T cell receptor signaling | primary human leukocytes, anti-CD3, IL-2 HTRF, 48 h | Potency, µM (highest dose often 9.22 µM), actives largely listed as activators | 330,000 tested, under 10 active | AID 504894
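Using a-CD3 beads without co-stimulation, primary human leukocytes were exposed to compounds for 48 hr. An HTRF IL-2 kit measured the cytokine, with europium-to-d2 energy transfer producing emission at 665nm upon 320nm excitation.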
A549 tox = kills or reduces viability of A549 cells in Nrf2 counter-screen | 390,000 compounds, 0.16% hits | AID 504648 | Potency, µM (series often up to 46 µM), hits mostly inhibitors | A549 ARE-Fluc cells, CellTiter-Fluor viability, 18-24 h
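Cytotoxicity counterscreen: CellTiter-Fluor fluorescence was measured in A549 ARE_Fluc cells after 18-24 h of compound exposure in a concentration series. The subsequent BugLite luminescent read reports ARE-luciferase activity.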
Nrf2 block = blocks Nrf2 signaling | A549 ARE-Fluc reporter, luciferase luminescence, 18-24 h | Potency, µM (top dose mostly 46 µM), hits mostly inhibitors | 360,000 compounds, 2.1% hits; further: nearly all actives have a fitted effect of over 60% in size
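In this cell-based qHTS, ARE-driven firefly luciferase in A549 cells reports Nrf2 activity; the luminescent signal after BugLite lysis is the measured value, with a prior CellTiter-Fluor read for cell health.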
ClpP mod = qHTS Assay for Activators of ClpP. purified B. subtilis ClpP, FRET peptide cleavage, 20 min. Potency, µM (titrated, usually from 57.5 µM). 340,000 compounds, 1.9% hits. AID 651965, 2013; active means well fitted falling curve with a large enough effect; inconclusive means small, poorly fitted or top-dose-only effect; inactive means no such curve, though single readings can be large or run the other way; further: the source files actives as falling curves though it sought activators and does not explain the sign; nearly all actives have a fitted effect of over 65% in size
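Buffer: 100 mM Tris/HCl pH8, 100 mM KCl, 0.05% low protease BSA, 2.5% glycerol, 0.01% Tween-20. ClpP 10 microg/mL final; 20 min RT; delta FRET normalized to ADEP and DMSO controls.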
Nrf2 ARE act = activators of Nrf2 (ARE) signaling; AREc32 ARE-luciferase reporter (MCF7-derived line), luminescence, 24 h; Potency, µM (top dose mostly 46.1 µM), hits mostly activators; 410,000 compounds, 0.31% hits; further: nearly all actives have a fitted effect of over 65% in size
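Luciferase luminescence (Steady-Glo, 30 min at room temperature) served as the read-out of ARE activation in AREc32 cells treated with compounds for 24 hr at 37 deg C.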
miR-21 FLuc = miR-21 reporter, rising signal | AID 2288 | HeLa miR-21 FLuc reporter, luciferase, 48 h | 340,000 tested, under 10 active | Potency, µM (titrated, usually from 38.3 µM); active = well fitted rising curve with a large enough effect; inconclusive = small, poorly fitted or top-dose-only effect; inactive = no such curve, though single readings can be large or run the other way;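 also: miR-21 action dims this reporter so a rising signal means less miR-21 action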
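Luminescence from a firefly luciferase reporter carrying a miR-21 binding site downstream, stably expressed under a CMV promoter in HeLa cells that make miR-21 endogenously, reports miRNA modulation after 48 h compound exposure up to approximately 40uM final.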
Of the large screens only hits and unclear results are named; the others gave an inactive call; ! = a repeat was not active. Unless noted, the call rests on the fitted dose curve; in most records, active means well fitted curve in the direction sought with a large enough effect; inconclusive means small, poorly fitted or top-dose-only effect, or another doubt; inactive means no such curve, though single readings can be large; an effect the other way counts as inactive or inconclusive.

COc1ccc(-c2cc(C(F)(F)F)n3nc(C(=O)Nc4cccc(C(F)(F)F)c4)c(Br)c3n2)cc1	none (no result: TCR activator)
COc1ccc(OC)c(/C=C/C(=O)Nc2ccc(C(=O)OCCC(C)C)cc2)c1	none (no result: TCR activator)
Cc1ccccc1NC(=S)NCCC(c1ccccc1)c1ccccc1	ClpP mod 13µM
NNC(=O)c1oc2nc(-c3ccco3)cc(-c3ccco3)c2c1N	Nrf2 block inconclusive
NNC(=O)c1oc2nc(-c3ccc(Cl)cc3)cc(-c3ccccc3)c2c1N	Nrf2 block 10µM (no result: ClpP mod)
CCN1CCN(c2cc(C)c3cc(NC(=O)c4cncc(Br)c4)ccc3n2)CC1	A549 tox inconclusive, ClpP mod 20µM
CCN1CCN(c2cc(C)c3cc(NC(=O)c4ccc(OC)c(OC)c4)ccc3n2)CC1	A549 tox 16µM!, Nrf2 block 16µM!
Cc1cc(N2CCN(C)CC2)nc2ccc(NC(=O)c3ccc(C(C)(C)C)cc3)cc12	miR-21 FLuc 6.6µM (no result: TCR activator)
CCN1CCN(c2cc(C)c3cc(NC(=O)Cc4ccccc4OC)ccc3n2)CC1	ClpP mod 28µM
COc1ccc(CCNC(=O)Nc2ccc3c(c2)c(=O)n(C)n3CC=C(C)C)cc1OC	none (no result: TCR activator, A549 tox, Nrf2 block, miR-21 FLuc)
Cc1ccc(-c2csc(C(O)c3cccc(Cl)c3)n2)cc1C (centres undefined)	none (no result: TCR activator, A549 tox, Nrf2 block, miR-21 FLuc)
CCOc1ccccc1NC(=O)Nc1ccc2nc(N3CCN(C)CC3)cc(C)c2c1	A549 tox inconclusive, Nrf2 block inconclusive, ClpP mod 11µM (no result: TCR activator)
COc1cc(CNC(=O)c2cnc3c(-c4cccc(C)c4)c(C)nn3c2C)cc(OC)c1OC	Nrf2 block 21µM (no result: TCR activator)
Cc1cccc(OCC(=O)Nc2cc(C)c(O)c(-c3nc4ccccc4o3)c2)c1	none (no result: TCR activator, A549 tox, Nrf2 block, Nrf2 ARE act, miR-21 FLuc)
COc1cccc2sc(NNC(=O)C3=COCCO3)nc12	ClpP mod 35µM (no result: TCR activator)
CC(=O)Nc1ccc(Br)c(Cl)c1	none (no result: ClpP mod)
O=C(Nc1ccc(Br)c(Cl)c1)C1CC1	Nrf2 block 15µM
Cc1cc(NC(=O)C2CCCCC2)ccc1NC(=O)c1ccccc1Cl	ClpP mod 16µM
C#CCOCCOCCOCCNc1nc(N2CCN(C(=O)CCCCCCCCCCNC(=O)[C@H]([C@@H](C)CC)n3cc(CCCCN=C(N)N)nn3)CC2)nc(N2CCN(C(=O)CCCCCCCCCCNC(=O)[C@@H]([C@H](C)O)n3cc(C)nn3)CC2)n1	A549 tox inconclusive, Nrf2 block 23µM (no result: miR-21 FLuc)
CCN(CC)S(=O)(=O)c1cc(NC(=O)Cc2n[nH]c(=O)c3ccccc23)ccc1C	Nrf2 block 26µM (no result: ClpP mod)
CN(c1ccccc1)S(=O)(=O)c1cccc(NC(=O)Cc2n[nH]c(=O)c3ccccc23)c1	Nrf2 block 16µM (no result: miR-21 FLuc)
Cc1cc(NC(=O)COC(=O)c2c(C)noc2C)ccc1Br	Nrf2 block inconclusive (no result: TCR activator, ClpP mod)
Cc1ccc(NC(=O)Cc2n[nH]c(=O)c3ccccc23)cc1S(=O)(=O)N1CCCCCC1	Nrf2 block 10µM (no result: miR-21 FLuc)
CCN(CC)S(=O)(=O)c1cc(NC(=O)COC(=O)c2c(C)noc2C)ccc1C	A549 tox inconclusive, Nrf2 block 21µM (no result: miR-21 FLuc)
Cc1ccc(S(=O)(=O)NCC(=O)OC(C)C(=O)NC2CCCCC2C)cc1C (centres undefined)	none (no result: miR-21 FLuc)
Cc1ccc(C)c(OCC(=O)O/N=C(\N)c2ccccn2)c1	Nrf2 block inconclusive
N/C(=N\OC(=O)COc1ccccc1Cl)c1ccccn1	Nrf2 block inconclusive, ClpP mod 14µM
Cc1cc(NC(=O)COC(=O)c2cc([N+](=O)[O-])ccc2N2CCOCC2)ccc1Br	A549 tox inconclusive, Nrf2 block 18µM (no result: ClpP mod, miR-21 FLuc)
O=C(COC(=O)c1cc([N+](=O)[O-])ccc1N1CCOCC1)c1ccc(Br)cc1	A549 tox inconclusive, Nrf2 block 26µM (no result: miR-21 FLuc)
CCCN(CC(=O)Nc1ccc(F)c(F)c1F)C(=O)c1cc([N+](=O)[O-])ccc1N1CCOCC1	ClpP mod 22µM (no result: miR-21 FLuc)
Cc1cc(C)c(NC(=O)COC(=O)c2cc([N+](=O)[O-])ccc2N2CCOCC2)c(C)c1	none
COc1cccc(NC(=O)c2cc(CN3CCOCC3)on2)c1	Nrf2 block inconclusive (no result: TCR activator)
CCOc1cc(C(=O)Nc2ccc3nc(Nc4cccc(Cl)c4)cc(C)c3c2)cc(OCC)c1OCC	none (no result: TCR activator)
Cc1cc(Nc2cccc(Cl)c2)nc2ccc(NC(=O)c3cncc(Br)c3)cc12	A549 tox inconclusive, Nrf2 block 18µM, miR-21 FLuc inconclusive (no result: TCR activator)
COc1cccc(CC(=O)Nc2ccc3nc(Nc4cccc(C(F)(F)F)c4)cc(C)c3c2)c1	Nrf2 block inconclusive, miR-21 FLuc inconclusive (no result: TCR activator)
Cc1ccccc1C(=O)Nc1ccc2nc(Nc3cccc(C(F)(F)F)c3)cc(C)c2c1	A549 tox inconclusive, Nrf2 block 18µM, miR-21 FLuc inconclusive (no result: TCR activator)
Cc1cc(NC(=O)c2cncc(Br)c2)ccc1NC(=O)c1cc2ccccc2o1	A549 tox inconclusive, Nrf2 block 13µM
Cc1cc(Nc2cccc(C(F)(F)F)c2)nc2ccc(NC(=O)c3cncc(Br)c3)cc12	Nrf2 block 21µM (no result: TCR activator)
COc1cc(NC(=O)c2ccccc2)ccc1NC(=O)c1cc2ccccc2o1	Nrf2 block inconclusive, ClpP mod inconclusive
CCOC(=O)c1ccc2ncc3c(-c4ccccc4)nn(-c4ccc(F)c(Cl)c4)c3c2c1	none (no result: TCR activator)
O=C(Nc1cccc(NC(=O)c2cncc(Br)c2)c1)c1cncc(Br)c1	Nrf2 block 8.2µM
COc1ccc(NS(=O)(=O)c2cccc(C(=O)NNC(=O)c3cncc(Br)c3)c2)cc1	ClpP mod 28µM (no result: miR-21 FLuc)
COc1cc(NC(=O)c2cc(Cl)ccc2Cl)ccc1NC(=O)c1cc2ccccc2o1	Nrf2 block inconclusive, ClpP mod 28µM (no result: TCR activator)
COc1cc(NC(C)=O)ccc1NC(=O)c1cc2ccccc2o1	none
Cc1cc(=O)n(CC(=O)NCc2ccc(OC(C)C)cc2)c2c1c(C)nn2-c1cccc(F)c1	none (no result: TCR activator)
CCc1ccccc1N1C(=O)N(C)c2ccccc2S1(=O)=O	none (no result: TCR activator, Nrf2 block)
CCc1nn(C(CC)C(=O)NCCCN2CC(C)CC(C)C2)c(=O)c2cc3oc(C)cc3n12 (centres undefined)	none
O=C1c2cc(F)ccc2-n2c1nc1ccccc1c2=O	A549 tox 12µM, Nrf2 block 6.5µM (no result: ClpP mod)
COCCn1c(=S)[nH]c2cc(C(=O)N3CCN(c4cccc(Cl)c4)CC3)ccc2c1=O	A549 tox inconclusive, Nrf2 block 21µM
COc1ccc(N2CCN(CCNC(=O)CCCn3c(=O)[nH]c4cc(Cl)ccc4c3=O)CC2)cc1	A549 tox inconclusive, ClpP mod 28µM (no result: Nrf2 block)
O=C(c1ccc(Cn2c(=S)[nH]c3ccc(N4CCOCC4)cc3c2=O)cc1)N1CCN(c2ccc(F)cc2)CC1	ClpP mod 20µM (no result: TCR activator)
